The entries are a selection whose mix differs from that of the whole data set. Active and inactive are the calls of the source.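 How the source made its calls: active means lipid droplet intensity inhibited by at least 50%, with more than 500 cells counted; inconclusive means wells with under 300 cells, treated as cytotoxic; inactive means the rest.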

A short description of the assay: inhibitors of hepatocyte lipid droplet formation, primary screen, imaging, high-throughput imaging, BODIPY stain (AID 1656). Particulars: AML12 mouse hepatocytes, oleate lipid droplets, at 6.5 µM, active compounds read high. Summed up:
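Material – mouse AML12 hepatocyte cell line, fixed after treatment · Compound dosing – one dose, 6.5 µM compound · Times – compound with oleate, overnight · Measured by – Image-based BODIPY and DAPI two-channel analysis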
Take `CCCOc1ccc(C)cc1CN(CCCl)CCCl`: the inhibition is inactive: -8.4%.
In the case of `CN1CCC(Nc2ccc(Cl)cc2)CC1`, the inhibition was inactive: -0.1%.
As to `COc1cc(OC)cc(C(=O)NCC2(N3CCOCC3)CCCCC2)c1`, the inhibition is inactive: -23.9%.
In the case of `COc1cccc(C(=O)N(c2cc(C)cc(C)c2)C2CCN(C(=O)OC(C)(C)C)CC2)c1`, the inhibition was inactive: 8.3%.
Next, `CCCOc1ccc(C(=O)NCC2(N(C)C)CCCCC2)cc1`: inactive: -37.4%; `CC(C)(C)OC(=O)N1CCC(Nc2ccccc2)CC1`: inactive: 14%.
Next, `CN1CCC(Nc2ccc(F)c(Cl)c2)CC1`: inactive: -0.5%; `CCOc1ncccc1C(=O)NCC1(N2CCOCC2)CCCCC1`: inactive: -8.3%; `CN(C)c1ccc(C(=O)NCC2(N3CCCCC3)CCCCC2)cc1`: inactive: 3%.
Consider `CCN1CCC(Nc2cccc(F)c2)CC1`, for which the inhibition is inactive: 6.8%.
Turning to `COc1cc(OC)cc(C(=O)NCC2(N3CCCCC3)CCCCC2)c1`, the inhibition was inactive: -13.5%.
In the case of `CCCN1CCC(Nc2cc(OC)cc(OC)c2)CC1`, the inhibition is inactive: 0.2%.
For `c1ccc(CN2CCC(Nc3ccccc3)CC2)cc1`, the inhibition is inactive: -13.3%.
Take `CC(C)(C)OC(=O)N1CCC(N(C(=O)c2ccccc2)c2ccc(Cl)cc2)CC1`: the inhibition was inactive: -15.2%.
Next, `N#Cc1ccc(C(=O)NCC2(N3CCCCC3)CCCCC2)cc1`: inactive: -7.5%; `O=C(OC1CN2CCC1CC2)C1c2ccccc2C=Cc2ccccc21` (stereo not drawn): inactive: -4.1%.
`CCOC(=O)N1CCC(Nc2ccc(C)cc2)CC1`: the inhibition was inactive: -0.2%.
Take `COc1ccc(C(=O)NCC2(N3CCOCC3)CCCCC2)cc1OC`: the inhibition is inactive: -11.9%.
As to `COc1cc(OC)c(C(=O)NCC2(N(C)C)CCCCC2)cc1OC`, the inhibition was inactive: 3.4%.
For the compound `CN(C)c1cccc(C(=O)NCC2(N3CCCCC3)CCCCC2)c1`, the inhibition was inactive: 4.7%.
The value for `COc1ccc(CN(CCCl)CCCl)cc1Cl` was inactive: -7.5%; that for `CC(C)c1ccc(NC2CCN(C(=O)OC(C)(C)C)CC2)cc1` was inactive: -10%; that for `CN1CCN(CCOC(=O)C(O)(c2ccccc2)c2ccccc2)CC1` was inactive: -3.7%.
Next, `COc1ccc(NC2CCN(C(=O)OC(C)(C)C)CC2)cc1`: inactive: 6.3%; `COc1cc(C(=O)NCC2(N3CCCCC3)CCCCC2)ccc1OC(F)F`: inactive: -51.9%; `O=C(NCC1(N2CCOCC2)CCCCC1)c1cc(=O)[nH]c2ccccc12`: inactive: 14.9%.
Consider `O=C(NCC1(N2CCCCC2)CCCCC1)c1cccc(C(F)(F)F)c1`, for which the inhibition was inactive: -4.9%.
For `O=C(NCC1(N2CCCCC2)CCCCC1)c1cccc([N+](=O)[O-])c1`, the inhibition was inactive: 13.9%.
As for `CCN1CCC(Nc2ccc(Cl)cc2)CC1`, the inhibition was inactive: -2.2%.
Take `O=C(NCC1(N2CCCCC2)CCCCC1)c1ccc(OC(F)F)cc1`: the inhibition was inactive: 2.5%.
Regarding `Cc1ccc(OCC(C)C)c(CN(CCCl)CCCl)c1`, the inhibition was inactive: 0.8%.
As for `CCOC(=O)N1CCC(Nc2cccc(C)c2)CC1`, the inhibition was inactive: -0.2%.
With `CCOC(=O)N1CCC(Nc2ccc(F)cc2)CC1`, the inhibition is inactive: 6.4%.
For `O=C(NCC1(N2CCCCC2)CCCCC1)c1ccc(F)cc1`, the inhibition was inactive: -23.9%.
For the compound `CCOc1ccc(C)cc1CN(CCCl)CCCl`, the inhibition was inactive: -24.2%.
Regarding `CCOC(=O)N1CCC(Nc2ccc(OC)cc2)CC1`, the inhibition is inactive: 20.4%.
In the case of `N#CC1(Nc2ccccc2)CCN(Cc2ccccc2)CC1`, the inhibition is inactive: -3.3%.
As to `O=C(NCC1(N2CCOCC2)CCCCC1)c1cc2ccccc2o1`, the inhibition was inactive: -4%.
For the compound `CSc1ccccc1C(=O)NCC1(N2CCCCC2)CCCCC1`, the inhibition was inactive: 11.1%.
For the compound `O=C(NCC1(N2CCCCC2)CCCCC1)c1ccc(=O)[nH]c1`, the inhibition is inactive: 7%.
The value for `CC(C)(C)OC(=O)N1CCC(N(C(=O)c2ccccc2)c2ccc(F)cc2)CC1` was inactive: 21.9%; that for `COc1ccc(C(=O)NCC2(N3CCCCC3)CCCCC2)c(OC)c1OC` was inactive: 9.5%.
The value for `COc1ccc(C(=O)NCC2(N3CCCCC3)CCCCC2)cc1` was inactive: -13.5%.

What is called inhibition is the drop in the measured response relative to a control, in per cent.

Values taken from PubChem BioAssay AID1656 (Sanford-Burnham Center for Chemical Genomics, 2009).
